Source: ChEMBL document CHEMBL5727209, “Treatment of neurodegenerative diseases through inhibition of HSP90” (2019)
Only a part of the results on these compounds is given; other tests are left out.

assay: Binding to JNPL3 brain Hsp90: The assay buffer (HFB) contained 20 mM HEPES (K) pH 7.3, 50 mM KCl, 5 mM MgCl2, 20 mM Na2MoO4, 0.01% NP40. Before each use, 0.1 mg/mL bovine gamma globulin (BGG) (Panvera Corporation, Madison, Wis.) and 2 mM DTT (Fisher Biotech, Fair Lawn, N.J.) were freshly added. GM-cy3B, a specific Hsp90 ligand, was synthesized as previously reported (10) and was dissolved in DMSO

In order of falling EC50:
1. CC(C)NCCn1c(Cc2cc3c(cc2I)OCO3)nc2c(N)nc(F)nc21  219 nM
2. CCN(C)CCn1c(Cc2cc3c(cc2I)OCO3)nc2c(N)nc(F)nc21  166 nM
3. CN(CC#N)CCn1c(Cc2cc3c(cc2I)OCO3)nc2c(N)nc(F)nc21  107 nM
4. CC(C)N(C)CCn1c(Cc2cc3c(cc2I)OCO3)nc2c(N)nc(F)nc21  92.3 nM
5. Nc1nc(F)nc2c1nc(Cc1cc3c(cc1I)OCO3)n2CCNCC1CC1  35.6 nM
6. CC(C)(C)CNCCn1c(Cc2cc3c(cc2I)OCO3)nc2c(N)nc(F)nc21  23.5 nM
7. CC(C)CNCCn1c(Cc2cc3c(cc2I)OCO3)nc2c(N)nc(F)nc21  19.6 nM
